## Apparent affinities of Ab-14 variants for a coronavirus HR2 peptide

Target peptide (SARS-CoV-2 spike, HR2 region): PDVDLGDISGINAS

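Phage display of a naive human antibody library on the peptide gave the parent. Library AAYL50 holds single substitutions and randomly drawn double and triple substitutions in the CDRs. The scFvs were displayed on barcoded MATa yeast, the peptide on MATalpha yeast. After mating in shaken culture at 30 °C for 16 h, diploids were selected and their barcode pairs sequenced. A regression on co-assayed BCL2-family reference pairs converts the normalised counts of each replicate to an apparent Kd. The assay was run in three technical replicates.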

Ab-14 is the parent antibody, in scFv form: VH, then the linker GGGGSGGGGSGGGGS, then VL. The heavy chain is unchanged in all variants.
VH: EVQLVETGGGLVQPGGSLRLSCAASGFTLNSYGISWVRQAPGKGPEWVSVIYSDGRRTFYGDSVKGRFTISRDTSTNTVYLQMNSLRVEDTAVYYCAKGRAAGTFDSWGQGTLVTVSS
VL: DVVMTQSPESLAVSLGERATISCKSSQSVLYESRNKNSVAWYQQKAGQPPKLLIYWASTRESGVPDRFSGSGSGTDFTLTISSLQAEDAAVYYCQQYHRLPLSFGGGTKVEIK

Variants are written as CDR1, CDR2 and CDR3 of the light chain (limits as in the source). Parent: KSSQSVLYESRNKNSVA, WASTRES, QQYHRLPLS. Values are log10 of the apparent Kd in nM; lower means stronger binding. Replicates are averaged; those with no signal do not enter the mean. A pair that was not seen in that replicate is written "nd"; this usually means weak binding, but a binder can also be missed. For reference, the parent read 0.65 as the reference entry and 1.68 as a member of this library. Background: pairings of library AAYL50 with three empty control strains gave a value in 18% of cases (median 4.19, 5th percentile 2.99). Values in that range, when seen in few replicates, are hard to tell from nonspecific mating. For each scFv, signals with the empty controls are counted beside the result.

With KSSQSVLYESRNKNSVA, WASTRES, QFYHRLPLV the result was 1.08, 1.27, 1.23 (mean 1.19; controls 0 of 9).
With GSSQSVLYESRNKNSVA, WASTRES, QQYHRLPLS the result was 1.60, 1.84, 1.61 (mean 1.68; controls 2 of 9).
With KSSQSVLYECRNKNSNA, WASTREA, QQYHRLPLS the result was 4.85, nd, nd (controls 1 of 9).
With KSSQSVLYESSNKNSVA, WASTRER, QQYHRLPHS the result was nd, nd, nd (controls 0 of 9).
With KGSQSVLYESRNKNSVS, WASTRGS, QQYHRLPLS the result was nd, nd, nd (controls 2 of 9).
With KSSQSVLYESRNKGSVA, WASTREA, QQYERLPLS the result was 0.77, 1.02, 1.10 (mean 0.96; controls 0 of 9).
With KSSYSVLYESHNKNSVA, WASTRES, QQCHRLPLS the result was nd, 2.84, nd (controls 2 of 9).
With KLSQSVLYESRNKNSVC, WASTRES, QEYHRLPLS the result was 2.57, 2.29, 2.37 (mean 2.41; controls 2 of 9).
With KSSQSVLYESRNMNSVA, WASTRES, QQYHRLPLF the result was 2.76, 2.80, 3.04 (mean 2.87; controls 8 of 9).
With KSKQSVMYESRNKNSVA, WASTRES, QQYHRLCLS the result was 2.48, 3.45, nd (mean 2.97; controls 1 of 9).
With KSSQSVLYESENKNSVA, WASTRES, QAYERLPLS the result was 0.03, 0.23, 0.16 (mean 0.14; controls 0 of 9).
With KSSQSVLYESRNKNSVA, WASTRHW, QQEHRLPLS the result was nd, 4.68, nd (controls 3 of 9).
With SSSQSVLYESRNKNSVA, WQSTRES, QQYHRLPLK the result was nd, nd, nd (controls 0 of 9).
With KSSQNVLYESRNKNSVA, WASTCES, QQYHRLPFS the result was nd, 3.24, 3.42 (mean 3.33; controls 2 of 9).
With KSSQSVLYESRNKNGVA, TASTRES, QQYHRLMLS the result was 4.39, 5.30, 4.99 (mean 4.89; controls 3 of 9).
With KSSQSVLYESRNKNSVA, DASTRES, QQYHRLTLS the result was 4.02, 2.10, 2.83 (mean 2.98; controls 0 of 9).
With KHSQSVLYESRNKNSVA, WASTRES, QQYHRFPLS the result was 1.08, 1.25, 1.25 (mean 1.19; controls 2 of 9).
With KSIQSVLYWSRNKNSVA, WASTRES, QQYCRLPLS the result was 3.29, 2.64, 2.94 (mean 2.96; controls 1 of 9).
With KSSQSVLYESRNKNSEA, WASTRES, QQLHALPLS the result was nd, 3.08, nd (controls 0 of 9).
With KSSQSVLYESRNKQSVA, WASCRES, QQYHRLPLS the result was 2.14, 2.18, 2.35 (mean 2.22; controls 1 of 9).
With KSSQSVLYESRNKNSHA, WASTRES, QQYHALPMS the result was nd, nd, nd (controls 1 of 9).
With KSSQSVLYESRNANSVA, WASLRES, QRYHRLPLS the result was nd, 4.39, nd (controls 2 of 9).
With KSSQSVLVESRNKNSVA, WASTRES, FSYHRLPLS the result was nd, nd, nd (controls 2 of 9).
With KSSQSELMESRNKNSVA, WASPRES, QQYHRLPLS the result was nd, 3.14, nd (controls 2 of 9).
With KSSQSVLYESRNGPSVA, WASTRES, QMYHRLPLS the result was 1.86, 1.78, 2.29 (mean 1.98; controls 1 of 9).
With KSSQSNLYCSRNKNSVA, WASTRES, QLYHRLPLS the result was 3.53, 3.26, 4.63 (mean 3.80; controls 4 of 9).
With ISSQSVLYHSRNKESVA, WASTRES, QQYHRLPLS the result was nd, nd, nd (controls 0 of 9).
With KSSQSYLYESRNKNIVA, WASTRES, NQYHRLPLS the result was 3.38, 3.26, nd (mean 3.32; controls 1 of 9).
With KSSQSVLYESRNKLSVA, WASTREG, QQYHRLPLS the result was nd, nd, nd (controls 0 of 9).
With KSSQSVLYESCNKNSVA, WASTRES, QQGHRLPLS the result was 1.06, 1.10, 1.16 (mean 1.10; controls 2 of 9).
With KSSQSVWYEDRNKNSVA, WASTRES, QQYHRLPLS the result was 0.26, 0.52, 0.39 (mean 0.39; controls 1 of 9).
With KSSQSVLYESRWKNSYA, WASNRES, QQYHRLPLS the result was nd, 3.93, nd (controls 1 of 9).

Repeated from above, the 3 best binders with a signal in all replicates:

| CDR-L1 | CDR-L2 | CDR-L3 | replicates, log10 nM | log10 Kd (nM), mean | signal with controls |
|---|---|---|---|---|---|
| KSSQSVLYESENKNSVA | WASTRES | QAYERLPLS | 0.03, 0.23, 0.16 | 0.14 | 0/9 |
| KSSQSVWYEDRNKNSVA | WASTRES | QQYHRLPLS | 0.26, 0.52, 0.39 | 0.39 | 1/9 |
| KSSQSVLYESRNKGSVA | WASTREA | QQYERLPLS | 0.77, 1.02, 1.10 | 0.96 | 0/9 |

Values reported by Engelhart et al. 2022, doi:10.1038/s41597-022-01779-4 (FLAb copy).